Experimental data from patent US20150004189A1 (published 2015).

Target: T1, HLA-DP DPB1*0201 (human)
T1 chain 1: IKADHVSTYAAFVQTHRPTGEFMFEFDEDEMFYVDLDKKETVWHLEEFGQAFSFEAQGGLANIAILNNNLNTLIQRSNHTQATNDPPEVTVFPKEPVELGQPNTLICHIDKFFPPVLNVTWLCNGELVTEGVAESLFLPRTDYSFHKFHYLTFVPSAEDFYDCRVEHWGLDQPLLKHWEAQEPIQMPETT
T1 chain 2: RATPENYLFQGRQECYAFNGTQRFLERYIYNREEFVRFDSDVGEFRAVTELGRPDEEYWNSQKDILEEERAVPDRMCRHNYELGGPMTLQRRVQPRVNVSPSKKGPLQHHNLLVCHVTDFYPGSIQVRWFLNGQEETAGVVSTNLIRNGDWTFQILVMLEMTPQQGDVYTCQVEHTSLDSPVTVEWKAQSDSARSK
Test: inhibition of radiolabeled peptide binding to purified HLA-DP

B1: Der f 1 (136-150) peptide 3324.0666 (peptide)
peptide: FSGVAATESAYLAYR
- IC50: 8.26 µM
